Results on one molecule are retold here after patent publication US7354936B2, “2-phenylpyran-4-one derivatives” (Almirall AG, priority 2000, dated 2008).

Sequences of proteins named here, by UniProt entry; tags and fusion partners are left off. Residues count along the entry.
UniProt P23219, 24-599: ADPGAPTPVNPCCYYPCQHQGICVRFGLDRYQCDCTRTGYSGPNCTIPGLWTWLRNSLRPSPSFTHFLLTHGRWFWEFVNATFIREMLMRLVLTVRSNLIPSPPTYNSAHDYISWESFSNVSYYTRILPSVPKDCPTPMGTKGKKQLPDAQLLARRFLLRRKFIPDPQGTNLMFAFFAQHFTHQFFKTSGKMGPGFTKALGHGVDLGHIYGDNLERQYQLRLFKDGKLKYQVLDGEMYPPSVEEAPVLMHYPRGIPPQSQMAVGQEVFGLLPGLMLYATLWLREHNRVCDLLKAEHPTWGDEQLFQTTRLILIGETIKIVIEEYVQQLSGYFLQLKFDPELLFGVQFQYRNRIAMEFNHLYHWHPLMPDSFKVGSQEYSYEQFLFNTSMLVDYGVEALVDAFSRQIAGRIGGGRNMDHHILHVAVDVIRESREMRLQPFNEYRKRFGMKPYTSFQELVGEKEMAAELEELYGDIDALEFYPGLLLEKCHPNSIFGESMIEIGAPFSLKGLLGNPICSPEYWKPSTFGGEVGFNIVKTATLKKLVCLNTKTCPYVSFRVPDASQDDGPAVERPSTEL

The experiment concerns the target T1, COX-1 (Homo sapiens, UniProt P23219).
T1 construct: Fresh blood from healthy volunteers; from tissue; host or cells: human whole blood (heparinized) from healthy volunteers
Kind of experiment: COX-1 activity in human whole blood (TXB2, calcium ionophore A23187). The experiment is classed as cell-based. The settings on record: 1 h at 37° C., TXB2 by ELISA. (In general: An ELISA detects its analyte on a solid surface through an enzyme-linked reagent.)

As to `Cc1cc(=O)c(Oc2ccc(F)cc2C)c(-c2ccc(S(C)(=O)=O)cc2)o1` [Example 1, 3-(4-Fluoro-2-methylphenoxy)-2-(4-methanesulfonylphenyl)-6-methyl pyran-4-one], the IC50 (usually the point on the concentration scale where inhibition reaches its midpoint) was 21.2 µM.
